In patent US12528776B2, “Composition and method for treating dermatological disorders using retinamides” (UNIVERSITY OF MARYLAND, Baltimore, priority 2019, dated 2026):

System: keratin 10 (K10), keratin 19 (K19) and filaggrin expression in RHE cultures
Assay: RHE immunostaining for K10, K19 and filaggrin
Conditions: 0.02% topical, 3 days, immunolabelling

CC1=C(/C=C/C(C)=C/C=C/C(C)=C/C(=O)O)C(C)(C)CCC1 [ATRA, all-trans-retinoic acid]
expression of K19 in viable cell layers of RHE: induced significant increase in the expression of K19

CC1=C(/C=C/C(C)=C/C=C/C(C)=C\C(=O)O)C(C)(C)CCC1 [Compound 13-CRA, 13-cis-retinoic acid]
expression of K10 and filaggrin in sb and sg layers of RHE: slightly increased compared to VNLG-152 and ATRA treated tissues | expression of K19 in viable cell layers of RHE: although higher to control, was comparatively lower than VNLG-152 or ATRA treated groups

CC1=C(/C=C/C(C)=C/C=C/C(C)=C/C(=O)Nc2ccc(F)cc2)C(C)(C)CCC1n1ccnc1 (stereo not shown) [VNLG-152]
expression of K19 in viable cell layers of RHE: induced significant increase in the expression of K19
